Molecular target: NR1/NR2D (Rattus norvegicus, UniProt P35439+Q62645)
Test: Two-electrode voltage-clamp, recombinant NR1/NR2D in Xenopus oocytes
Type: cell-based
Settings: selectivity ratio

The chains behind the UniProt entries cited, without tags or fusion partners. Residues count along the entry.
UniProt Q62645, 28-1323: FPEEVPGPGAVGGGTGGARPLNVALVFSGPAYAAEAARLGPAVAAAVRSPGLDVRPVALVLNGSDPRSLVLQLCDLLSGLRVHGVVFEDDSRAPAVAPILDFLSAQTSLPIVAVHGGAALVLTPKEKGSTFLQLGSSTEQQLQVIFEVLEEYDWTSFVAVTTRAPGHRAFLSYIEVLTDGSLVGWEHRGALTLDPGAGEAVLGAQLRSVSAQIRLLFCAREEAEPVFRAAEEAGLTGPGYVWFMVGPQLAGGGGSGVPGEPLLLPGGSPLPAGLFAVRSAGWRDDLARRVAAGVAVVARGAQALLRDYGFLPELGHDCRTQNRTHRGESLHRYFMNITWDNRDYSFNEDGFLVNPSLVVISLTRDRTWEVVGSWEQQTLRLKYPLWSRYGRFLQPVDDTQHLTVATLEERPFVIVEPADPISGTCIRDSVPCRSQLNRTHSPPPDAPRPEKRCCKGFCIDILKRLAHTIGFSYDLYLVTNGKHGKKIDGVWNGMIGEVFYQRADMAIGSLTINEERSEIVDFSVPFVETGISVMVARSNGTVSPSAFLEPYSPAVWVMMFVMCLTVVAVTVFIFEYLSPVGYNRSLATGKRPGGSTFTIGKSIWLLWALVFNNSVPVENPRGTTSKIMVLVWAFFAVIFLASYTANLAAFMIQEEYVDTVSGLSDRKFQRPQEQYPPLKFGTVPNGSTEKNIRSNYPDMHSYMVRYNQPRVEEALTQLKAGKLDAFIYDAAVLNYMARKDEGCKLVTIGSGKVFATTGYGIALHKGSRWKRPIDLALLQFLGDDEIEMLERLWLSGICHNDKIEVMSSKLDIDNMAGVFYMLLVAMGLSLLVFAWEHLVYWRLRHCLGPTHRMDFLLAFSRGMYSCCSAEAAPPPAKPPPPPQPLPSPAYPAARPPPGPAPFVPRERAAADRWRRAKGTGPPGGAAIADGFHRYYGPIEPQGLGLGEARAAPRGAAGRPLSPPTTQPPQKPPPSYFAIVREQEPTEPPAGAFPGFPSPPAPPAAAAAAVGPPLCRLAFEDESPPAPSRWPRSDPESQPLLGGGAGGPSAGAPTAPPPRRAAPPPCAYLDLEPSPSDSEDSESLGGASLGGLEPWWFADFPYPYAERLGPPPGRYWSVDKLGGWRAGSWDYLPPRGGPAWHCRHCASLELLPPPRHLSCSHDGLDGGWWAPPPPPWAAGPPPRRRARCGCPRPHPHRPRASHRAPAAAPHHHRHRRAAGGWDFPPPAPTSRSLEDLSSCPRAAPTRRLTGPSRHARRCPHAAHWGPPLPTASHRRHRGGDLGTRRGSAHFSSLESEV

**Q.** Which “GluR1/NR2D: (IC50 GluR1)/(IC50 NR2D)” value does the source give for O=C(O)c1ccc(-n2c(/C=C/c3ccc([N+](=O)[O-])cc3)nc3ccccc3c2=O)cc1 [Compound 7] here?
**A.** >20

From publication PMC2920070 (Journal of medicinal chemistry, 2010)
